## Yeast mating assay 2: variants of the scFv Ab-95

Antigen: PDVDLGDISGINAS, a 14-residue peptide of the SARS-CoV-2 spike HR2 region.

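Library AAYL52 holds single substitutions and randomly drawn double and triple substitutions in the CDRs. Affinity was read by AlphaSeq, a pooled yeast mating assay with surface-displayed partners. The frequency of each diploid, read from paired DNA barcodes, reflects how well the two displayed proteins bind. Scores were corrected for input abundance and mapped to Kd with protein pairs of known affinity run in the same pool. There are three technical replicates.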

The variants keep the heavy chain, the linker and the frameworks of Ab-95 (scFv order VH, three GGGGS repeats, VL).
VH: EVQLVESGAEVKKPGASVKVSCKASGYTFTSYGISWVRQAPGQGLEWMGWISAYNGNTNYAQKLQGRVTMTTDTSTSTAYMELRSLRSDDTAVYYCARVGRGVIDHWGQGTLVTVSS
VL: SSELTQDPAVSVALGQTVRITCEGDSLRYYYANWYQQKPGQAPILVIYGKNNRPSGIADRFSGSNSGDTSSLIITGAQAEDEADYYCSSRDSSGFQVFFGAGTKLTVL

Sequences are complete VL domains.
Every variant below is changed at E23 of the VL (sequential numbering).
The Kd shown is the geometric mean over detected replicates; a lower Kd is a better binder.
"not detected" means that the variant was in the library but no mating with the target was seen in any replicate; the authors take this as a sign of poor binding, and no number exists.

| VL | Kd | seen in | empty controls |
|---|---|---|---|
| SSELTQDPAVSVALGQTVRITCTGISLRAYYANWYQQKPGQAPILVIYGKNNRPSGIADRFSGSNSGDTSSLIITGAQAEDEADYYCSSRDSSGFQVFFGAGTKLTVL | 220 nM | 3/3 | 5/9 |
| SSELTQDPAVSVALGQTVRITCTGDSLRYYYANWYQQKPGQAPILVIYSKMNRPSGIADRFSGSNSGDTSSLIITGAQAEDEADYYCSSRDSSGFQVFFGAGTKLTVL | 960 nM | 3/3 | 6/9 |
| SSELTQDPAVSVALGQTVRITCVGDSLRKYYANWYQQKPGQAPILVIYGKNNRPDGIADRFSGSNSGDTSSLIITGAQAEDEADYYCSSRDSSGFQVFFGAGTKLTVL | 110 nM | 3/3 | 0/9 |
| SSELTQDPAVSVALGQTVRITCDGDSLRCYYANWYQQKPGQAPILVIYGKNNRPSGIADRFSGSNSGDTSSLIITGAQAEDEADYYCSSRDSSGFQVFFGAGTKLTVL | 890 nM | 3/3 | 2/9 |
| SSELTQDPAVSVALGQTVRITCPGDELRYYYANWYQQKPGQAPILVIYGKNNRPSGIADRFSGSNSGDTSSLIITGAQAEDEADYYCLSRDSSGFQVFFGAGTKLTVL | not detected | 0/3 | 2/9 |
| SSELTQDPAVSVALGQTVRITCWGDSLRYQYANWYQQKPGQAPILVIYGKNNRPSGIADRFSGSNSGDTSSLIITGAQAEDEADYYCSSRDSSGFQVNFGAGTKLTVL | 39 nM | 3/3 | 2/9 |
| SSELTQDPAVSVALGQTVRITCQGDSLRYYYANWYQQKPGQAPILVIYGPNNRPSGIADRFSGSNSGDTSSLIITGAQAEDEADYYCSFRDSSGFQVFFGAGTKLTVL | not detected | 0/3 | 2/9 |
| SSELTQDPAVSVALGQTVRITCYGWSLRYYYANWYQQKPGQAPILVIYGKNNIPSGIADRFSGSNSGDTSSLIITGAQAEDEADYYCSSRDSSGFQVFFGAGTKLTVL | not detected | 0/3 | 3/9 |
| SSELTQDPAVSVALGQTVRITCPGDSLRYYYANWYQQKPGQAPILVIYGTNNRPSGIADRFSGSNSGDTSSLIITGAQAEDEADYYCSSRDSSGVQVFFGAGTKLTVL | 1.2 µM | 1/3 | 1/9 |
| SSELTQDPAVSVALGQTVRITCPGDSLRYYPANWYQQKPGQAPILVIYGKNNRPSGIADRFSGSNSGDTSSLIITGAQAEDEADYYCSSRDSSGFQVFFGAGTKLTVL | 460 nM | 3/3 | 1/9 |
| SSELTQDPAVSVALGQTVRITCAGDSLRYYYAEWYQQKPGQAPILVIYGKNNRPSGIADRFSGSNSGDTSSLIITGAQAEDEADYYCSSRDSSGFQEFFGAGTKLTVL | 6.8 µM | 1/3 | 1/9 |
| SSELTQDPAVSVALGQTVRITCIGDSLRYYYANWYQQKPGQAPILVIYGKNVRPSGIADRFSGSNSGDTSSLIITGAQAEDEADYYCSSPDSSGFQVFFGAGTKLTVL | 7.6 µM | 2/3 | 3/9 |
| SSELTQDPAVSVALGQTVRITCCGDSLVYYYANWYQQKPGQAPILVIYGKNNRTSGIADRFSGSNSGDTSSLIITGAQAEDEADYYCSSRDSSGFQVFFGAGTKLTVL | 8.7 nM | 3/3 | 0/9 |
| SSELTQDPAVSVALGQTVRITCPGDSLRYYYANWYQQKPGQAPILVIYGKNNRPSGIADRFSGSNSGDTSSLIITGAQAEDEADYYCSSQDSSGFQCFFGAGTKLTVL | not detected | 0/3 | 2/9 |
| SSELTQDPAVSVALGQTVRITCMGDSLMYYYANWYQQKPGQAPILVIYGKNNRPSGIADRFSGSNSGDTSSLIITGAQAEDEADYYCSSRDSSIFQVFFGAGTKLTVL | 2.6 µM | 3/3 | 4/9 |
| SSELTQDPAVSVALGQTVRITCTGDSLRYYYANWYQQKPGQAPILVIYGQNQRPSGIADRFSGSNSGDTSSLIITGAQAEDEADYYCSSRDSSGFQVFFGAGTKLTVL | 44 nM | 3/3 | 1/9 |

For reference, 2 entries of the list once more:

VL	Kd	seen in	empty controls
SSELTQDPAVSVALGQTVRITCTGDSLRYYYANWYQQKPGQAPILVIYGQNQRPSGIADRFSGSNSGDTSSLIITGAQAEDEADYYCSSRDSSGFQVFFGAGTKLTVL	44 nM	3/3	1/9
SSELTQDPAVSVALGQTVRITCYGWSLRYYYANWYQQKPGQAPILVIYGKNNIPSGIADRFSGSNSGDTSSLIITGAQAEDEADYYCSSRDSSGFQVFFGAGTKLTVL	not detected	0/3	3/9

Nonspecific signal, from three strains lacking the peptide, appeared in 28% of pairings of library AAYL52, centred on 8.2 µM (5% of these signals below 800 nM); values are not corrected for it. For each scFv, signals with the empty controls are counted beside the result.

Data: MIT Lincoln Laboratory AlphaSeq set, Engelhart et al. 2022, doi:10.1038/s41597-022-01779-4, as distributed in FLAb.